The numbers were not newly measured in patent US10948221B1 (priority 2020, dated 2021), which cites them from elsewhere.

For the data set, the system named is rat. As to conditions: in vivo.

In the case of `[K+].[O-][Br+2]([O-])[O-]` [KBrO3], the “LD50 (oral-rat; mg/kg)” value is given as 321 mg/kg.
